# Data taken from BindingDB's records for 1846919.
# By UniProt entry, the sequences of proteins in these tests, tags left out.
# UniProt P97266, whole entry, looked up: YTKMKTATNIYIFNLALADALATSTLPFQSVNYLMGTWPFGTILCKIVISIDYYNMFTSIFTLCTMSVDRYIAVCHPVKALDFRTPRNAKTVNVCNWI
# Target: Mu-type opioid receptor (Cavia porcellus, UniProt P97266)
# Assay: ChEBML_146264
# Experimental: Compound was evaluated for the opioid receptor mu affinity determined with [3H][D-Ala2-MePhe4-Gly-ol5]-enkephalin (DAGOL) in the presence of excess unlabeled DAGOL to suppress mu binding.
compound,measurement,value
CN(C(=O)Cc1ccc(Cl)c(Cl)c1)[C@@H]1CCCC[C@H]1N1CCCC1,Ki,0.88 µM
